Our source for the Ki values is BindingDB's records for doi:10.1016/s0165-6147(97)01043-2 (Roche Bioscience, 1997).

Sequences of proteins named here, by UniProt entry; tags and fusion partners are left off.
UniProt P32305, whole entry: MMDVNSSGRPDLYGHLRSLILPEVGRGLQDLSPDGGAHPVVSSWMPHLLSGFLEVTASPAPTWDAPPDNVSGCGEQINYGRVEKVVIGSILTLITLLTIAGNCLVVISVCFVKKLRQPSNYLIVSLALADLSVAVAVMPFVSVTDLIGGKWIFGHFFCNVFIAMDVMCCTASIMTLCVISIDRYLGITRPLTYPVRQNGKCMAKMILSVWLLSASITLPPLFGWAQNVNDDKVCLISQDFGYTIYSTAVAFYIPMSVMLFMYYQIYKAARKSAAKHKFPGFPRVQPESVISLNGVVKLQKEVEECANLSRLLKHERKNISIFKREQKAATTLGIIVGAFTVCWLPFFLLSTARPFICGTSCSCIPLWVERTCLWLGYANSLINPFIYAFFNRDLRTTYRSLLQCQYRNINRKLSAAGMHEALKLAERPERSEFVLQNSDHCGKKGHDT
UniProt P34969, whole entry: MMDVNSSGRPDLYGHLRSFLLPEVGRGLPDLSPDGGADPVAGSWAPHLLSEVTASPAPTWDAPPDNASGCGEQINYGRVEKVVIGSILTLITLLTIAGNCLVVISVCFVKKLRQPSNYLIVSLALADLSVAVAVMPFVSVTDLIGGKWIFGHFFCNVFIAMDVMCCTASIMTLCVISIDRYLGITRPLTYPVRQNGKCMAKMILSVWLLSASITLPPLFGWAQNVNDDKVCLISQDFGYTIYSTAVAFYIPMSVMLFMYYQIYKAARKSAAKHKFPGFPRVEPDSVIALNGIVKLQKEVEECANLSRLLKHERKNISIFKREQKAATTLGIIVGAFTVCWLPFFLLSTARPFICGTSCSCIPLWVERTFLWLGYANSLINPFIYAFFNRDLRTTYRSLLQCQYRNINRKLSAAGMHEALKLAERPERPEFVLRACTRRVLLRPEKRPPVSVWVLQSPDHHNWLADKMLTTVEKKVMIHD

The target in test [1] is 5-hydroxytryptamine receptor 7 (Rattus norvegicus, UniProt P32305).
The target in test [2] is 5-hydroxytryptamine receptor 7 (Homo sapiens, UniProt P34969).

“And” between values parts separate entries of the source, which are not always exact repeats. Equal values may be shown once.

One may read the Ki as a dissociation constant, usually derived from enzyme kinetics or from competition with a known ligand. Higher therefore signals weaker binding. `CCCN(CCC)C1CCc2cccc(O)c2C1` (centres undefined): the Ki was 50.1 nM in test [1]; 501 nM and 126 nM in test [2].
`CCN(CC)C(=O)[C@@H]1C=C2c3cccc4[nH]cc(c34)C[C@H]2N(C)C1` [(4R,7R)-N,N-diethyl-6-methyl-6,11-diazatetracyclo[7.6.1.0^{2,7}.0^{12,16}]hexadeca-1(16),2,9,12,14-pentaene-4-carboxamide]: in test [1], the affinity, expressed as Ki, was 10 nM.
In test [1], `COc1ccc2[nH]cc(CCN)c2c1` [tryptamine, 5-Methoxy] came in with a Ki of 1.58 nM.
